Results from paper PMC10146558, “Highly Cytotoxic Copper(II) Mixed-Ligand Quinolinonato Complexes: Pharmacokinetic Properties and Interactions with Drug Metabolizing Cytochromes P450” (Pharmaceutics, 2023).

System: CYP3A4/5
Assay: CYP3A4/5 activity (testosterone 6β-hydroxylation) in human liver microsomes
Conditions: Dixon and Lineweaver–Burk plots

O.O.O.O=[N+]([O-])[O-].O=[N+]([O-])[O-].[Cu+2] [copper(II) nitrate trihydrate, reference compound]
Type of inhibition, CYP3A4/5 (testosterone 6β-hydroxylation): non-competitive
